Literature values, collected in patent US5591602A (priority 1993, dated 1997).

System: κ opioid receptor site
Details: Nock et al., 1988; cited from earlier work

CN(C(=O)Cc1ccccc1)C1CCC2(CCCO2)CC1N1CCCC1 (single isomer, unassigned)
selective labelling of κ opioid receptor site (in words): selectively label
